Results: ChEMBL document CHEMBL1129590, “Tyrphostins. 6. Dimeric benzylidenemalononitrile tyrophostins: potent inhibitors of EGF receptor tyrosine kinase in vitro” (J Med Chem, 1996)

Sequences of proteins named here, by UniProt entry; tags and fusion partners are left off.
UniProt P00533, whole entry: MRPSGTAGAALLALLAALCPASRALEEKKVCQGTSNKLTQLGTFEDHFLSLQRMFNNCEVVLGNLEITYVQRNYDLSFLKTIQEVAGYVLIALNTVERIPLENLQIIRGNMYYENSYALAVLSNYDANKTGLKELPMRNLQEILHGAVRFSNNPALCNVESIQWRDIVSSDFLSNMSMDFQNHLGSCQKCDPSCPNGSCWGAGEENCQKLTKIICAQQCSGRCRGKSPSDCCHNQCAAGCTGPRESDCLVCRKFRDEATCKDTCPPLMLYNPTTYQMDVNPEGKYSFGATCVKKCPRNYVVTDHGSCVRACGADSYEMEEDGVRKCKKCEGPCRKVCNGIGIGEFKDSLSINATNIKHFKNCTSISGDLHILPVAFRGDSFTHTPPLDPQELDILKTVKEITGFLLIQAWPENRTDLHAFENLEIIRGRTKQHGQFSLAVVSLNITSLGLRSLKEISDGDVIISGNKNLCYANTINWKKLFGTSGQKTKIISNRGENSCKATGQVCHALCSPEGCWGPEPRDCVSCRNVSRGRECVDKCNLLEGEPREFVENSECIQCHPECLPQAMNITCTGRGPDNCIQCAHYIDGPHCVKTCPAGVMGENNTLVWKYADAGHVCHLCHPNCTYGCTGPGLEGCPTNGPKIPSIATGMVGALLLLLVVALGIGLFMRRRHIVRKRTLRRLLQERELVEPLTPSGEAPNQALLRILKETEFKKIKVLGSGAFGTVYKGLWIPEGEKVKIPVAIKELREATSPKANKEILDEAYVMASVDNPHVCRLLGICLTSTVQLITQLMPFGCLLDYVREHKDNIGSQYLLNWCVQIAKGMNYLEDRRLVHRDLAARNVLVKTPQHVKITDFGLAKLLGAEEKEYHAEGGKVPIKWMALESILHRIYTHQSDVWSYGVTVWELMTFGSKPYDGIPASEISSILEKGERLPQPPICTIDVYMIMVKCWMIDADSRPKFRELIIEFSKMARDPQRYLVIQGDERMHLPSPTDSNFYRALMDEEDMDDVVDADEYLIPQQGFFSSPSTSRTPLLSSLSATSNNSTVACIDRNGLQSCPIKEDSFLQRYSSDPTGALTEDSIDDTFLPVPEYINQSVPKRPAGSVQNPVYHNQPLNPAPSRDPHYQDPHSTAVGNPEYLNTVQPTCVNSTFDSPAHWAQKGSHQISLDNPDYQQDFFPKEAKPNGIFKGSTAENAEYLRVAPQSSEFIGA

What was measured:
[1] = target: T1, Epidermal growth factor receptor (Homo sapiens, UniProt P00533); experiment: Inhibition of epidermal growth factor receptor (EGFR) phosphorylation of the exogenous substrate poly(Glu6, Ala3,Tyr) (polyGAT)
[2] = target: T1, Epidermal growth factor receptor; experiment: Inhibitory activity of compound against Epidermal growth factor receptor autophosphorylation

SMILES: N#C/C(=C\c1ccc(O)c(O)c1)C(=O)NCCCNC(=O)/C(C#N)=C/c1ccc(O)c(O)c1
- IC50 [1]: 400 nM
- IC50 [2]: 3.3 µM
